The subject of assay [1] is K562 erythroleukemia cells. In words: Ligand-coated bead-binding assay. It counts as cell-based, human. To be noted: number of beads bound per 100 cells; 1 h at 37°C; mean ± SEM.
For assay [2], the target named is α5β1 integrin (human (endogenous in K562)) (UniProt P08648). Description: ligand-coated bead binding to cells.

Amino acid sequences for entries named in this document (tags omitted). Residues count along the entry.
UniProt P08648, 42-1049, chain 1 of 2: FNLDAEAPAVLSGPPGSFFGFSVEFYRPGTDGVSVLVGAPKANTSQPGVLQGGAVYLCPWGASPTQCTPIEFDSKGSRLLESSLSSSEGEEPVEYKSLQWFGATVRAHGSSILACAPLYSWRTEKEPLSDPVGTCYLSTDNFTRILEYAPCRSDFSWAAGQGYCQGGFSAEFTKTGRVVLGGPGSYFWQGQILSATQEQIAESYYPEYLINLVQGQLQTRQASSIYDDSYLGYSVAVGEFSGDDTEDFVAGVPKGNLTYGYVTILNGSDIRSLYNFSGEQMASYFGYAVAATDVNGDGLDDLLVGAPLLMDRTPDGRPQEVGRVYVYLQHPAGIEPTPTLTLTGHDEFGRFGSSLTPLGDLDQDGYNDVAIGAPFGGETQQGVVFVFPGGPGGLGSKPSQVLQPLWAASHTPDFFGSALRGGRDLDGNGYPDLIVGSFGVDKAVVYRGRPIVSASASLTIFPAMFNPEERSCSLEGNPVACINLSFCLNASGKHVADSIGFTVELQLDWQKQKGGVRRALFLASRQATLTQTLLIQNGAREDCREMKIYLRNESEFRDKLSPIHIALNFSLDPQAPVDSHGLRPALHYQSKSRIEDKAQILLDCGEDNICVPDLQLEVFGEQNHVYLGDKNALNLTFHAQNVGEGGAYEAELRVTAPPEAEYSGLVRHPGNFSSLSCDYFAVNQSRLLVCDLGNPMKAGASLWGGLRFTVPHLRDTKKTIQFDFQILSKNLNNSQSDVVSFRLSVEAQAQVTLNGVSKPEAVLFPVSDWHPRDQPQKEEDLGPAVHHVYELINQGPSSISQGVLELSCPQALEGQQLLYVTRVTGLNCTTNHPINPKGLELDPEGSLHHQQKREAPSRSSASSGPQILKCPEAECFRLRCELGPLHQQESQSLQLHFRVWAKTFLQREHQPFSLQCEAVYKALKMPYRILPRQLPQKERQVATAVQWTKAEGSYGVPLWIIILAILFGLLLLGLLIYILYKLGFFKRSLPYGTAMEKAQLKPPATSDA

Regarding “human serum albumin: coated on beads to determine nonspecific binding”, the “AI (adhesion index) of ligand-coated beads bound to K562 cells” value in assay [1] is reported as 46 ± 10.
Consider human fibronectin (ligand), for which, in assay [2], the adhesion index (AI, beads bound per 100 K562 cells) (beads bound per 100 cells) came to 318.
